Measured values reported in patent US20070078620A1, “Methods and kits for delivering pharmaceutical agents into the coronary vascular adventitia” (Mercator MedSystems Inc., priority 2002, published 2007).

Conditions: pig, in vivo

Substance: Oregon Green® 488 paclitaxel [OGP]
- circumferential staining: staining was observed throughout the circumference of the artery
- longitudinal extension from the injection site (mean): 15 mm
- penetration of drug into vessel wall layers: penetrated into the media
- staining after intraluminal delivery: staining on the luminal surface only
- staining of the adventitia (UV microscope, scored 0-4+): 4+
